{"source": "patent US9435811B2", "about": "“Inducer of chondrocyte proliferation and differentiation” (ORIENTAL YEAST CO., LTD, priority 2008, dated 2016)", "molecules": {"B1": {"name": "BMP-2: BMP-2 (R&D), protein belonging to the TGF-β superfamily (protein, UniProt P12643 283-396, looked up)", "Bone morphogenetic protein 2": "QAKHKQRKRLKSSCKRHPLYVDFSDVGWNDWIVAPPGYHAFYCHGECPFPLADHLNSTNHAIVQTLVNSVNSKIPKACCVPTELSAISMLYLDENEKVVLKNYQDMVVEGCGCR"}}, "system": "human mesenchymal stem cells", "test": "Three-dimensional culture using human mesenchymal stem cells", "assay_type": "cell-based", "settings": "21 days; 40 μM peptide D, 10 ng/ml TGF-β3, 100 ng/ml BMP-2", "description": "Chondrocytes are three-dimensionally cultured induce […]. Three dimensional culture system relatively reflected the natural conditions. Human mesenchymal stem cells were seeded at 2.5×10^5 cells in 15-ml tubes (TPP) and the cells were collected by centrifuged at 1,000 rpm and room temperature for 4 minutes. The supernatant was removed and the medium was replaced with 0.5 ml chondrocyte differentiation induction medium (Lonza) with 10 ng/ml TGF-β3 (R&D). The medium was replaced with fresh medium every 3 or 4 days. Simultaneously, peptide D was added at 50 μM and at 150 μM (i.e., a low-dose peptide D group and a high-dose peptide D group). After 14 days, the cells were fixed in 4% PFA (Wako), photographed under a microscope (FIG. 8). A pellet was embedded in paraffin, and the sample slide was prepared, followed by alcian blue staining and safranin 0 staining (FIG. 9).\nSubsequently, the synergistic effects of peptide D and TGF-β3 on cartilage formation were examined. 2.5×10^5 human mesenchymal stem cells were cultured in the presence of 40 μM peptide D and 10 ng/ml TGF-β3 with cartilage differentiation induction medium for 21 days. After the pellets were fixed in 4% PFA, the pellet was photographed under a microscope (FIG. 10). After the pellet had been embedded in paraffin, the sample slide was prepared and stained with alcian blue and safranin 0 (FIG. 11). […]", "data": [{"molecule": "B1", "values": [{"measurement": "pellet size", "result": "did not change"}]}]}
